The record followed here is ChEMBL document CHEMBL3112390, “Discovery and SAR of 5-aminooctahydrocyclopentapyrrole-3a-carboxamides as potent CCR2 antagonists” (Bioorg Med Chem Lett, 2014).

Amino acid sequences for entries named in this document (tags omitted). A change or cut given only in a name is not applied to a line headed by its entry.
UniProt P41597: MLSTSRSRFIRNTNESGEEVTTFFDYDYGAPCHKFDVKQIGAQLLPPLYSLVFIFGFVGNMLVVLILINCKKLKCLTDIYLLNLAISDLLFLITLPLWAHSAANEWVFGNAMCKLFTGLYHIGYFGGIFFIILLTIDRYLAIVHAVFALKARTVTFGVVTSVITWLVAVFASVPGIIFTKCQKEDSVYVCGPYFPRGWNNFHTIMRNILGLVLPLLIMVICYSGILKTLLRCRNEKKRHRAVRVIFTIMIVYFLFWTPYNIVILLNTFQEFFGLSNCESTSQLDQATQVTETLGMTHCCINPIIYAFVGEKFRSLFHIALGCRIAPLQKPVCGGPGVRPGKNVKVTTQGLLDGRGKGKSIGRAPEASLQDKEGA

The target of this assay is C-C chemokine receptor type 2 (Homo sapiens, UniProt P41597). Put plainly: Binding affinity to CCR2 receptor (unknown origin).
Turning to `COC1COCCC1N[C@@H]1C[C@H]2CNC[C@@]2(C(=O)N2CCc3ncc(C(F)(F)F)cc3C2)C1` (mixture of isomers), the IC50 amounted to 780 nM.

Consider `COC1COCCC1N[C@@H]1C[C@H]2CN(C)C[C@@]2(C(=O)N2CCc3ncc(C(F)(F)F)cc3C2)C1` (mixture of isomers), for which the IC50 turned out to be 300 nM.

For the molecule `COC1COCCC1N[C@@H]1C[C@H]2CN(c3ncccn3)C[C@@]2(C(=O)N2CCc3ncc(C(F)(F)F)cc3C2)C1` (mixture of isomers), the IC50 is 1300 nM.

Consider `COC1COCCC1N[C@@H]1C[C@H]2CN(C(=O)/C=C/c3ccccc3)C[C@@]2(C(=O)N2CCc3ncc(C(F)(F)F)cc3C2)C1` (mixture of isomers), for which the IC50 is 30 nM.
